Test results reported in patent publication EP4782448A1, “SUBSTITUTED PYRIDOTRIAZOLE COMPOUND, AND PREPARATION METHOD THEREFOR AND USE THEREOF” (Origiant Pharmaceutical Co., Ltd., priority 2023, dated 2025).

Target: T1, RIPK1 Kinase (Homo sapiens, UniProt Q13546)
T1 construct: purchased Eurofins (Kinase Profiler service)
T1 sequence (Q13546 1-671): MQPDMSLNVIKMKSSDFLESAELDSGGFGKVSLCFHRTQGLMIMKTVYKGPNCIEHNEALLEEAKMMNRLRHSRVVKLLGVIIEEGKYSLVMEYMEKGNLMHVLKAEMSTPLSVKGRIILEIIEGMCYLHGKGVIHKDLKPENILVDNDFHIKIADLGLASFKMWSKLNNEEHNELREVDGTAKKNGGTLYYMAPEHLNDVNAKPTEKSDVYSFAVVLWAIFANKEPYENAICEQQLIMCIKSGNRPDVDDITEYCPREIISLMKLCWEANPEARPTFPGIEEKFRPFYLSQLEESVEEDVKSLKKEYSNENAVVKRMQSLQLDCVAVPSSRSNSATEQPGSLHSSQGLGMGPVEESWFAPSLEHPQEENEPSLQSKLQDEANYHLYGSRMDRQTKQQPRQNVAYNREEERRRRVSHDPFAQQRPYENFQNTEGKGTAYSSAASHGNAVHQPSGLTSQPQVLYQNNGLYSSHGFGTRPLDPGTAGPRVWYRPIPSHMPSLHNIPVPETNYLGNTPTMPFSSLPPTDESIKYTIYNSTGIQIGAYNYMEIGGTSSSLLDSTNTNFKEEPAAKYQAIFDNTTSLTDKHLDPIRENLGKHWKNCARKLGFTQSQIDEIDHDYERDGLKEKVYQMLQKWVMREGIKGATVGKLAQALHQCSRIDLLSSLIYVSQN
Assay: biochemical

Row | Structure (SMILES) | IC50 [µM]
1 | CCn1cc(C(=O)N[C@@H](C)c2ccc(F)cc2)c2cc(-c3ccn4nc(NC(=O)CN5CCOCC5)nc4c3)ccc21 [Compound 8] | 0.01 to 0.1
2 | C[C@H](NC(=O)c1cn(C)c2ccc(-c3ccn4nc(NC(=O)CN5C6CCC5COC6)nc4c3)cc12)c1ccc(F)cc1 [Compound 73] | 0.01 to 0.1
